Arrestin-AP2 inh: inhibitors of beta-arrestin/AP2 binding, primary screen, biochemical, GPCR trafficking, flow cytometry; beta-arrestin 1 C-terminal peptide binding to AP2 beta2-adaptin appendage (human); FITC-arrestin peptide / GST-AP2 beads; AP2 beta2 appendage carries R879A mutation; inhibition, % at 10 µM; 340,000 compounds, 0.31% hits; AID 504490, 2011;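 active = inhibition above a set limit, near 3 SD of compounds lacking own fluorescence, cut at about 54% in these data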
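test system = AP2 appendage R879A on GSH beads | buffer or medium = PBS plus Tween 20 (0.05%) and BSA (0.1%) | incubation = 12 min plus 1 h, RT | detection = bead flow cytometry, FITC channel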
Yeast UUG start-1: modulators of yeast start codon fidelity, primary screen, whole organism, S. cerevisiae, single point, plate reader. S. cerevisiae UUG-firefly luciferase reporter, luminescence/redox ratio. activity score, % at 18.7 µM. hit rate 0.13% among 350,000;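 active = replicate mean at a twofold rise or more, about +100% in these data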;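 also: firefly luciferase made from a UUG start codon reports start codon fidelity; reporter light over untreated wells divided by growth signal over untreated wells; some hits fall short of that in this replicate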
DSG3 Ab inh: inhibitors of pemphigus antibody binding to DSG3, primary screen, biochemical, bead-based, flow cytometry, scFv-GFP. 310,000 compounds, 0.48% hits. AID 588358, 2011. Desmoglein-3 (Homo sapiens), P32926. DSG3-coupled beads, scFv-anti-DSG3-GFP binding; stronger effect = lower value. binding (percent of control), % at 10 µM;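 active = binding more than 3 SD below its plate's average and above zero; inconclusive = below that plate limit but binding exactly zero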
TbMetRS inhib: T. brucei MetRS inhibitors, primary screen, biochemical, luminescence; inhibition, % at 11.9 µM; 360,000 compounds, 0.4% hits; purified T. brucei MetRS, ATP depletion, Kinase-Glo luminescence;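 active = inhibition above a per-plate cutoff of the control wells' mean inhibition plus 3 SD, cut at about 5.5% in these data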
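Test system: purified T. brucei MetRS enzyme. Also added: ATP, methionine and E. coli bulk tRNA substrates. Compound: 11.9 µM single point. Schedule: 15 min enzyme-compound preincubation, 2 h reaction, 10 min detection, 25 °C. Signal: luciferase luminescence of residual ATP, Kinase-Glo. Evaluation: percent inhibition versus plate control medians. Controls: DMSO wells, low control.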
Rce1 inhib: yeast Rce1p protease inhibitors, primary screen, biochemical, fluorescence, cell-free homogeneous | CAAX prenyl protease 2 (Saccharomyces cerevisiae (strain ATCC 204508 / S288c)), Q03530 | yeast membranes, quenched prenylated peptide cleavage fluorescence | calls only | 290,000 compounds, 0.27% hits | AID 2563, 2010;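 active = fall in fluorescence gain of 50% or more versus controls, with final raw signal at or below 3038400; inconclusive = same 50% fall but final raw signal above 3038400; inactive = fall in fluorescence gain under 50%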
Arr AP2 CP1: inhibitors of arrestin peptide binding to AP2, confirmation, biochemical, cherry pick 1, flow cytometry beads. 1,300 compounds, 2% hits. shares compounds with Arrestin-AP2 inh. GST-AP2 beads, FITC arrestin peptide binding; GST-fused beta2-adaptin appendage, R879A mutant. inhibition, % at 10 µM. AID 504908, 2011;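 active = inhibition above a set limit, roughly 3 SD of non-fluorescent compound noise, cut at about 38% in these data; inactive = inhibition at or below that limit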;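 note: loss of bead fluorescence from 50 nM FITC arrestin peptide bound to appendage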
GST GSH counter: GST-fluorescein capture on glutathione beads, confirmation, artefact control for arrestin-AP2 inhibitor project, biochemical, cherry pick 1, flow cytometry. shares compounds with Arrestin-AP2 inh. GST-fluorescein binding to GSH beads, fluorescence, counter-screen. inhibition, % at 10 µM. 1,300 compounds, 2% hits. AID 588338, 2011;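 active = inhibition above 50%, about 3 SD of the inhibition seen with non-fluorescent compounds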;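 note: fluorescein maleimide labelled GST captured on 4 micron glutathione beads; higher means more loss of bead fluorescence from quenching or blocked binding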
Yeast UUG start-2: enhancers of UUG start codon usage in yeast, dose response, S. cerevisiae, UUG firefly luciferase, cherry-pick, set 2. shares compounds with Yeast UUG start-1. luminescence, 4 h; 100% means double the DMSO signal. activation, % at 38 µM. 540 tested, under 10 active. AID 652061, 2013;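 active = signal increase whose fitted curve reaches an absolute level of 40 at a concentration under 10 µM; inactive = activity opposite to the expected increase, or the rest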
Of the large screens only hits and unclear results are named; the others gave an inactive call (follow-up assays come after a bar, where they were run); ! = repeats disagree. Hits are enriched below; roughly 1.2% of the tested compounds scored in any of these assays.

CN(C)CCNC(=O)c1cccn(Cc2cc(C(F)(F)F)cc(C(F)(F)F)c2)c1=O	Rce1 inhib active (no result: Yeast UUG start-1)
O=c1[nH]c(=S)[nH]c(O)c1/C=C1/C=c2ccccc2=N1	DSG3 Ab inh 83
c1ccc2c(c1)[IH]c1ccccc1-2	Yeast UUG start-1 151 (no result: Rce1 inhib)
COc1cccc(N2CCN(Cc3cccc(Cl)c3)CC2)c1	none (no result: Yeast UUG start-1)
COc1cccc(CC(=O)N2CCN(Cc3cccc(Cl)c3)CC2)c1	DSG3 Ab inh -53
COC(=O)[C@@H]1[C@@H](CO)[C@@H]2Cn3c(ccc(C4=CCCCC4)c3=O)[C@H]1N2CC1CCCC1	none (no result: Arrestin-AP2 inh, DSG3 Ab inh, TbMetRS inhib, Rce1 inhib)
Clc1ccc(C[n+]2c(-c3ccccc3)cc(-c3ccccc3)cc2-c2ccccc2)cc1	Rce1 inhib active
O=C(Cc1ccccn1)N1CCCCN2[C@@H](CO)[C@@H](c3ccc(-c4ccc(F)cc4)cc3)[C@@H]2C1	none (no result: Arrestin-AP2 inh, DSG3 Ab inh, TbMetRS inhib, Rce1 inhib)
COc1ccc(C#Cc2ccc([C@@H]3[C@@H](CO)N4CCCCN(C(=O)Cc5ccccc5)C[C@@H]34)cc2)cc1	none (no result: Arrestin-AP2 inh, DSG3 Ab inh, TbMetRS inhib, Rce1 inhib)
COc1ccc(-c2ccc([C@@H]3[C@H]4CN(C(=O)Cc5ccccc5)CCCCN4[C@H]3CO)cc2)cc1	none (no result: Arrestin-AP2 inh, DSG3 Ab inh, TbMetRS inhib, Rce1 inhib)
C[N+](C)(C)CCOC(=O)CBr	none (no result: Rce1 inhib)
CC(=O)OCC[N+](C)(C)C	Rce1 inhib active!
CCOC(=O)[C@@H]1[C@H]2COc3ccc(Br)cc3[C@@H]2N2C(=O)N(c3cccc(C)c3)C(=O)[C@]12C	Rce1 inhib active
CCCCn1c(=O)c(C=Nc2cccnc2Cl)c(O)n(CCCCl)c1=O	Rce1 inhib active (no result: Yeast UUG start-1)
O=C1CC(c2cccnc2)=NN1c1ccc(Cl)cc1Cl	Arrestin-AP2 inh 61 (no result: Yeast UUG start-1) | Arr AP2 CP1 inactive | GST GSH counter inactive
CCN1C(=O)CC(c2cccnc2)=Nc2ccccc21	none (no result: Yeast UUG start-1)
O=C1NC(=O)N(CCC2=CCCCC2)C(=O)/C1=C\c1cccs1	Arrestin-AP2 inh 55 (no result: Yeast UUG start-1) | Arr AP2 CP1 inactive | GST GSH counter inactive
COc1ccc(-c2ccc([C@H]3[C@H]4CN(C(=O)Cc5ccccc5)CCCCN4[C@H]3CO)cc2)cc1	none (no result: Arrestin-AP2 inh, DSG3 Ab inh, TbMetRS inhib, Rce1 inhib)
Cc1ccc(CC(=O)N2CCN(C)CC2)cc1	Arrestin-AP2 inh 55 | Arr AP2 CP1 inactive | GST GSH counter inactive
Nc1ccc2cc(Br)ccc2c1	Arrestin-AP2 inh 61 | Arr AP2 CP1 inactive | GST GSH counter inactive
Nc1ccc(Br)cc1	DSG3 Ab inh inconclusive (no result: Rce1 inhib)
COC(=O)C[C@@H]1CC[C@H]2NC[C@H](O)COC[C@@H]2O1	none (no result: Arrestin-AP2 inh, DSG3 Ab inh, TbMetRS inhib, Rce1 inhib)
O=C(c1ccccc1)c1cn(CC(=O)N2CCOCC2)c2ccccc12	none (no result: Rce1 inhib) | Yeast UUG start-2 inactive
O=C(Cc1ccccc1)N1CCCCN2[C@@H](CO)[C@H](c3ccc(-c4ccccc4)cc3)[C@@H]2C1	none (no result: Arrestin-AP2 inh, DSG3 Ab inh, TbMetRS inhib, Rce1 inhib)
CN(C)c1ccc(/C=C/C=C/c2sc3ccccc3[n+]2C)cc1	none
CC[n+]1c(/C=C/C=C/c2ccc(N(C)C)cc2)sc2ccccc21	Yeast UUG start-1 100 | Yeast UUG start-2 inactive

From PubChem BioAssay
